PABP1 MLLE inh: inhibitors of PABP1 MLLE–PAM2 peptide binding, primary screen, biochemical, fluorescence polarization, FITC-PAM2, GST-MLLE; inhibition, % at 20 µM; 360,000 compounds, 0.36% hits; AID 588489, 2011; in the data active = inhibition above about 35%, passing the limit was not always enough;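 also: plate controls were DMSO wells with GST-MLLE for no effect and wells lacking GST-MLLE protein for full effect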
UUG fidelity: modulators of yeast start codon fidelity, primary screen, whole organism, S. cerevisiae, single point, plate reader | activity score, % at 18.7 µM | 350,000 tested, 0.13% active | S. cerevisiae UUG-firefly luciferase reporter, luminescence/redox ratio;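 active means replicate mean at a twofold rise or more, about +100% in these data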;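 further: firefly luciferase made from a UUG start codon reports start codon fidelity; reporter light over untreated wells divided by growth signal over untreated wells; some hits fall short of that in this replicate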
PABP FP inh: PABP poly(A) RNA binding inhibitors, primary screen, biochemical, fluorescence polarization, uHTS. Polyadenylate-binding protein 1 (Homo sapiens), P11940. calls only at 35 µM. 290,000 compounds, 1% hits. AID 2014, 2009;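 also: calls also rest on retests at 20 µM and on dose response follow-up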
DSG3 Ab inh: inhibitors of pemphigus antibody binding to DSG3, primary screen, biochemical, bead-based, flow cytometry, scFv-GFP; Desmoglein-3 (Homo sapiens), P32926; DSG3-coupled beads, scFv-anti-DSG3-GFP binding; stronger effect = lower value; binding (percent of control), % at 10 µM; 310,000 compounds, 0.48% hits;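 active = binding more than 3 SD below its plate's average and above zero; inconclusive = below that plate limit but binding exactly zero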
eIF4H inh: human eIF4H binding inhibitors, primary screen, translation initiation inhibitor project, biochemical, uHTS, fluorescence polarization; Eukaryotic translation initiation factor 4H (Homo sapiens), Q15056; eIF4H fluorescence polarization binding assay; inhibition, % at 35 µM; 290,000 compounds, 0.94% hits; AID 2012, 2009;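 also: calls also rest on retests at 20 µM and on dose response follow-up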
* = called active by the depositor; i = inactive; ? = inconclusive; nt = not tested or not shown; + = active, no number. Only some compounds are listed: those with a hit (about 1.5% of all), similar ones and a draw of the others. Unless noted, no rule for the calls is given here.

Amino acid sequences for entries named in this document (tags omitted).
Polyadenylate-binding protein 1 (Homo sapiens), P11940, UniProt P11940, whole entry, looked up: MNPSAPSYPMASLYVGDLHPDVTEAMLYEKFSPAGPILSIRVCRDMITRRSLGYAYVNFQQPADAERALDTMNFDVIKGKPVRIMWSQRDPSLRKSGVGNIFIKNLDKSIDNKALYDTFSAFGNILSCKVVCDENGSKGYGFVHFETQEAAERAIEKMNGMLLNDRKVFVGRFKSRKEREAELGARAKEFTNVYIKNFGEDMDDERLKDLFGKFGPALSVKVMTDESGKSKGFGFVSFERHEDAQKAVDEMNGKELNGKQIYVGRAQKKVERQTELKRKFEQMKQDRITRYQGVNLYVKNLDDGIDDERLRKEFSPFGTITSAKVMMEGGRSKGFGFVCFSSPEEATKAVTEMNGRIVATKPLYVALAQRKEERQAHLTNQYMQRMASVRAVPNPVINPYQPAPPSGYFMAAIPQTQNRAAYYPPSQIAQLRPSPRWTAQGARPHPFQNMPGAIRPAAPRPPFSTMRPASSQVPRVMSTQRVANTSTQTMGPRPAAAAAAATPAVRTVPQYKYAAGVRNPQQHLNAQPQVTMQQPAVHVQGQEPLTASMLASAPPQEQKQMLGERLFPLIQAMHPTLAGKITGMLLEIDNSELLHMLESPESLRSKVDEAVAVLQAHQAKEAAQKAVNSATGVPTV

Results follow in this order: PABP1 MLLE inh	UUG fidelity	PABP FP inh	DSG3 Ab inh	eIF4H inh
O=C(N[C@@H]1CC[C@H](CCNC(=O)C2CCCC2)O[C@H]1CO)c1ccncc1
 : nt	-10.0	nt	nt	nt
Cc1ccccc1C(=O)Nc1sc(C)c(C)c1C(=O)c1ccccc1
 : 32.1	-15.3	i	103.7	-8.0
Cc1sc(NC(=O)CCl)c(C(=O)c2ccccc2)c1C
 : 36.9*	-15.8	i	101.7	-5.8
CC(C)NC(=O)N1C[C@@H]2[C@H](c3ccccc31)[C@H](CO)N2C(=O)c1cccnc1
 : nt	8.2	nt	nt	nt
CCOC(=O)C1CCN(C(=O)NS(=O)(=O)c2ccc(C)cc2)CC1
 : 3.4	-9.2	+	104.8	3.0*
CCOC(=O)C1CCN(C(=S)Nc2ccc(C)cc2)CC1
 : -74.0	nt	i	104.4	-3.1
C=CCN=c1scc(-c2ccco2)n1/N=C/c1ccc(O)c(O)c1O
 : 10.8	nt	+	94.2	91.6*
CC(C)N=c1scc(-c2ccco2)n1/N=C/c1ccc(O)c(O)c1
 : -18.5	-51.9	i	101.4	-13.1
COCCN=c1scc(-c2ccco2)n1/N=C/c1ccc(O)c(O)c1O
 : 19.2	-18.8	+	107.5	?
CNC(=O)C[C@H]1CC[C@H]2[C@H](COc3ccc(NS(=O)(=O)c4ccc(F)cc4)cc3C(=O)N2C)O1
 : nt	8.7	nt	nt	nt
CN(C)CC(=O)N[C@H]1CC[C@H](CCn2cc(C3CCCC3)nn2)O[C@H]1CO
 : nt	4.5	nt	nt	nt
CC(C)NC(=O)N(C)C[C@H]1Oc2c(NS(=O)(=O)c3ccc(F)cc3)cccc2C(=O)N([C@H](C)CO)C[C@H]1C
 : nt	-3.7	nt	nt	nt
O=C(Cn1cc(C(=O)c2cccs2)c2ccccc21)NC1CCCCC1
 : 6.3	-25.8	i	45.3*	-7.6
O=C(Cn1cc(C(=O)c2ccco2)c2ccccc21)NC1CCCC1
 : 13.7	-14.0	i	nt	0.4
CCCCCc1cc(=O)[nH]c(=S)[nH]1
 : 17.0	nt	i	94.4	-2.9

Profiles, looked up by structure.
Entry for CNC(=O)C[C@H]1CC[C@H]2[C@H](COc3ccc(NS(=O)(=O)c4ccc(F)cc4)cc3C(=O)N2C)O1 → PABP1 MLLE inh: nt; UUG fidelity: 8.7; PABP FP inh: nt; DSG3 Ab inh: nt; eIF4H inh: nt
Entry for Cc1ccccc1C(=O)Nc1sc(C)c(C)c1C(=O)c1ccccc1 → PABP1 MLLE inh: 32.1; UUG fidelity: -15.3; PABP FP inh: i; DSG3 Ab inh: 103.7; eIF4H inh: -8.0

Next part:
Results follow in this order: PABP1 MLLE inh	UUG fidelity	PABP FP inh	DSG3 Ab inh	eIF4H inh
CCCCCc1ccc(C(=O)CCCC)c(=S)[nH]1
 : 38.0*	-23.5	i	99.8	6.8
O=C(NCC1COc2ccccc2O1)C1CCN(S(=O)(=O)c2ccccc2)CC1 (configuration not stated)
 : 7.4	-0.3	nt	nt	nt
Cn1c(=O)oc2cc(S(=O)(=O)N3CCC(C(=O)NCC4COc5ccccc5O4)CC3)ccc21 (configuration not stated)
 : 5.3	-19.6	i	-14.8*	-5.4
O=C(C[C@H]1C=C[C@H](NC(=O)Cc2ccccn2)[C@@H](CO)O1)NCCCN1CCOCC1
 : nt	-11.7	nt	nt	nt
CC(=O)Nc1sc(/C(C#N)=C\c2cccc(Cl)c2)nc1-c1ccc(C)cc1
 : i	-0.9	+	101.8	127.4*
O=C(C1CCCC1)N1C[C@H]2[C@@H](c3ccccc31)[C@@H](CO)N2C(=O)c1ccccc1F
 : nt	33.4	nt	nt	nt
CCCC(=O)NC(NC(=S)Nc1ccc(S(N)(=O)=O)cc1)C(Cl)(Cl)Cl (configuration not stated)
 : 28.0	nt	i	98.4	-5.4
CCCCCC(=O)NC(NC(=S)Nc1ccc(S(N)(=O)=O)cc1)C(Cl)(Cl)Cl (configuration not stated)
 : 19.5	-15.2	+	99.3	61.1*
CC(C)NC(=O)Nc1cccc2c1O[C@@H](CN(C)Cc1ccncc1)[C@@H](C)CN([C@@H](C)CO)C2=O
 : nt	-5.4	nt	nt	nt
COCC(=O)Nc1ccc2c(c1)C(=O)N(C)[C@H]1CC[C@@H](CC(=O)NCc3ccccc3F)O[C@H]1CO2
 : nt	13.8	nt	nt	nt
Cc1ccc2nc(/C(C#N)=C\c3ccc(Oc4ccc(C(F)(F)F)cc4[N+](=O)[O-])cc3)[nH]c2c1
 : -9.5	nt	+	100.8	76.0*
COc1ccc(/C=C(\C#N)c2nc3ccc(C)cc3[nH]2)cc1Oc1ccc(C(F)(F)F)cc1[N+](=O)[O-]
 : -8.7	-16.8	i	117.5	44.6
CCCSC1=N/C(=C\C=C\c2ccco2)C(=O)S1
 : -12.8	nt	+	85.0	93.8*
COC(=O)c1c(NC(=S)Nc2cc(OC)c(Cl)cc2OC)sc2c1CCCCC2
 : 47.2*	-16.9	i	113.0	8.5
CCOC(=O)c1c(NC(=S)Nc2cc([N+](=O)[O-])ccc2OC)sc2c1CCCCC2
 : nt	nt	i	nt	-2.2
COc1ccc(CN(C)C[C@H]2OCCCC[C@H](C)Oc3ccc(NC(=O)Nc4cccc5ccccc45)cc3C(=O)N([C@@H](C)CO)C[C@@H]2C)cc1
 : nt	16.8	nt	nt	nt
